Experimental data published in patent publication US8530489B2 (Vertex Pharmaceuticals Incorporated, priority 2006, dated 2013).

Chains of the proteins cited; added tags and fusions are not shown.
UniProt P53350, whole entry: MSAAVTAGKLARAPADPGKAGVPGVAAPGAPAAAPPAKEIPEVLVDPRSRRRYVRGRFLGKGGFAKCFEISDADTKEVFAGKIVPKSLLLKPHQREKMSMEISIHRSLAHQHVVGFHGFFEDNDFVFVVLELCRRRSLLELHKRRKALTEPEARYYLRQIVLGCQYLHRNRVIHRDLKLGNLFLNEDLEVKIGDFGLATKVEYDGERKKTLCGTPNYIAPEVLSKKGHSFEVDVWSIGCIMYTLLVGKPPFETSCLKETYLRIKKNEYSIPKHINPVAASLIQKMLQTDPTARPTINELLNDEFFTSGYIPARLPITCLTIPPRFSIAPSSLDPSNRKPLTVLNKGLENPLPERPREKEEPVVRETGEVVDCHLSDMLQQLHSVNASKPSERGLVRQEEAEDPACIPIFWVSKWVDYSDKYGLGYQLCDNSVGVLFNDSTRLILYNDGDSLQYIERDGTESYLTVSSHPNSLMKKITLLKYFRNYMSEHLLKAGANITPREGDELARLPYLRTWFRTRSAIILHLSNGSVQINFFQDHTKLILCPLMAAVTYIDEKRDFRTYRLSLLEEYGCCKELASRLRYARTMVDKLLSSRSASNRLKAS

Target: PLK1 (Homo sapiens, UniProt P53350)
Assay: PLK1 Inhibition Assay I (radioactive-phosphate incorporation)
Settings: read-out: PLK1 inhibition Ki; Ki(app); PLK1 Inhibition Assay I or II (table does not say which)
Description: The compounds of the present invention are evaluated as inhibitors of human PLK kinase using the following assays.
Compounds were screened for their ability to inhibit PLK1 using a radioactive-phosphate incorporation assay. Assays were carried out in a mixture of 25 mM HEPES (pH 7.5), 10 mM MgCl2, and 1 mM DTT. Final substrate concentrations were 350 μM [γ-33P]ATP (136 mCi 33P ATP/mmol ATP, Amersham Pharmacia Biotech/Sigma Chemicals) and 450 μM peptide (KKKISDELMDATFADQEAK) [SEQ. ID:1]. Assays were carried out at 25° C. in the presence of 2 nM PLK1. An assay stock buffer solution was prepared containing all of the reagents listed above, with the exception of ATP and the test compound of interest. 30 μL of the stock solution was placed in a 96 well plate followed by addition of 2 μL of DMSO stock containing serial dilutions of the test compound (typically starting from a final concentration of 10 μM with 2-fold serial dilutions) in duplicate (final DMSO concentration 5%). The plate was pre-incubated for 10 minutes at 25° C. and the reaction initiated by addition of 8 μL [γ-33P]ATP (final concentration 350 μM). […]
After removing mean background values for all of the data points, Ki(app) data were calculated from non-linear regression analysis of the initial rate data using the Prism software package (GraphPad Prism version 3.0cx for Macintosh, GraphPad Software, San Diego Calif., USA).

CCN1CCCC1CNc1ncc(C#N)c(-c2c[nH]c3ncc(C(F)(F)F)cc23)n1 (stereo not shown)
Ki: > 40 nM
